Measurements taken from patent US20250041415A1, “CYTOTOXIC INNATE LYMPHOID CELL AND USES THEREOF” (Umoja Biopharma, Inc., priority 2021, published 2025).

Tested on: Vδ2+ T cells transduced with RACR-FRB-mCherry
Test: RACR-expansion of blood-derived Vδ2+ T cells
Assay type: cell-based, human
Settings: IL-2 500 IU/mL
Description: On day 0, peripheral blood monocular cells (PBMCs) were cultured in a 37° C. incubator with 5 μM Zometa and IL-2 (500 IU/mL) in complete RPMI (cRPMI) media containing RPMI1640, 10% FBS, 1× Pen-Strep, and 1× Glutamax for initial in vitro expansion. On day 5, the cells were washed in cRPMI and transduced with lentivirus containing RACR-FRB-mCherry (described in Example 5; at an MOI of 10 in the presence of IL-2 (500 IU/mL). Cells were split in cRPMI media containing 500 IU/mL IL-2 every 2-3 days. An aliquot was collected and initial transduction of cells was assessed by mCherry via flow cytometry on day 9.
Vδ2+ T cells were then cultured in wells containing fresh cRPMI with either IL-2 (500 IU/mL), Rapamycin (10 nM), or AP21967 (A/C Heterodimerizer-Takara®, 10 nM) to initiate RACR signaling for an additional 5 days. On day 14, an aliquot of the cells was collected and washed, stained for V32, and RACR transduction was measured by mCherry. Percent Vδ2+ RACR+ cells, as well as number of transduced V32+ cells measured by counting beads was assessed by detection of V82 stain and mCherry via flow cytometry. Similarly, on day 21, an aliquot of cells was again measured for percent and number of Vδ2+ RACR+ cells via flow cytometry.

## IL-2: interleukin 2, comparator cytokine
  total number of transduced Vδ2+ cells, day 21 compared to day 14: lower total number of transduced Vδ2+ cells
